In ChEMBL document CHEMBL1201862, “PubChem BioAssay data set” (2004) one finds IC50 data, which are given here for two compounds.

By UniProt entry, the sequences of proteins in these tests, tags left out. Where a name states a change or a piece, a line headed by the entry shows the natural chain unless it says otherwise.
UniProt P41145: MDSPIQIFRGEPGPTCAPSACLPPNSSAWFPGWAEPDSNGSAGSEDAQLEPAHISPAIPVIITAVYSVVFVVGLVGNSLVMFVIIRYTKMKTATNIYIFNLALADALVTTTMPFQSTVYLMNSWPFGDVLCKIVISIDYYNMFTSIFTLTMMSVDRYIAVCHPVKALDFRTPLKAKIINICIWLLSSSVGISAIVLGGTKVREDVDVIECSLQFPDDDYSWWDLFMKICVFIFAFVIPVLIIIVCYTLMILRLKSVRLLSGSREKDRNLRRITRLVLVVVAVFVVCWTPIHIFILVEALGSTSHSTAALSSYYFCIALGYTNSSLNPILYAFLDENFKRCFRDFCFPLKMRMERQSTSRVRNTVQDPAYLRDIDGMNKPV
UniProt P78536: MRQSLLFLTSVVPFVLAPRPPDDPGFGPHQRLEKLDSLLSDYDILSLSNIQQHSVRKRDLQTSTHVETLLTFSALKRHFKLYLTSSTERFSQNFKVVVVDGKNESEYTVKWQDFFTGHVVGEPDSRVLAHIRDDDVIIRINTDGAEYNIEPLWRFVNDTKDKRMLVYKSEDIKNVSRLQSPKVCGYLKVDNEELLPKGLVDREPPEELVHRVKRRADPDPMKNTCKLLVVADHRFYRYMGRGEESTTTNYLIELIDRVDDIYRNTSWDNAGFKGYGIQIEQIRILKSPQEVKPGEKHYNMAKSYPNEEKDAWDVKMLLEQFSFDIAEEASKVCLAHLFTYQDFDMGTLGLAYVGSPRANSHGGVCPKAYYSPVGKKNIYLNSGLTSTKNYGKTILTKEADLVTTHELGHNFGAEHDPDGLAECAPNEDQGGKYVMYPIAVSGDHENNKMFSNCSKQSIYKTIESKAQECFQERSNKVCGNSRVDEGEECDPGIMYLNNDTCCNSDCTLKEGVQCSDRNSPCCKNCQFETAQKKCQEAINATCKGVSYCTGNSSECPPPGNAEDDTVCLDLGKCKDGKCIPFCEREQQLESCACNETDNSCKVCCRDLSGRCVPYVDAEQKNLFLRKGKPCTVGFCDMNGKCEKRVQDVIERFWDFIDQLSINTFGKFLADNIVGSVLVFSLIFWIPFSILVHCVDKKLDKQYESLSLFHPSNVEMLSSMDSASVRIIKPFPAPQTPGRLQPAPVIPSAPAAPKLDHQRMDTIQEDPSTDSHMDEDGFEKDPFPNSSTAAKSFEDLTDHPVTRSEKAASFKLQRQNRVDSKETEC

Activity calls are given as the source filed them.

The target of experiment [1] is Kappa-type opioid receptor (Homo sapiens, UniProt P41145). Kind of experiment: SAR analysis of Antagonists of the Kappa Opioid Receptor (KOR) using an Image-Based Assay - Set 3. [Related pubchem assays (depositor defined):AID1777, AID1785]. Format: functional.
In experiment [2] the target is T1, Disintegrin and metalloproteinase domain-containing protein 17 (Homo sapiens, UniProt P78536). The experiment is described as follows: exosite inhibitors of ADAM17, dose response, biochemical (AID 743260).
In experiment [3] the target is T1, Disintegrin and metalloproteinase domain-containing protein 17. The experiment is described as follows: ADAM17 protease inhibitors, dose response, counter-screen for ADAM10 exosite inhibitor project, biochemical, quenched FRET substrate (AID 743253).

Consider `Cc1ccc(S(=O)(=O)NCc2ccc(C(=O)NCCN(Cc3ccc(Br)cc3)C(C)C)cc2)cc1`, for which, in experiment [1], the IC50 was active: 0.57 µM.
Regarding `CNC(=O)[C@@H](NC(=O)[C@H](CC(C)C)[C@H](O)C(=O)NO)C(C)(C)C`, the IC50 was active: 0.0115 µM in experiment [2] and active: 0.0254 µM in experiment [3].
